The text below walks through data of PMC7023435 (Pharmaceutics, 2020).

The conditions of series [1]: in vivo; cited from earlier work. The source says: For overcoming the absorption barrier, PEs have been developed and studied both for paracellular enhancement by tight junction opening and transcellular e ...
For series [2], the system named is porcine intestinal tissue. Briefly: Ex vivo intestinal permeation study in Franz diffusion cells. It counts as in vitro ADME, pig. Conditions: Franz diffusion cell, 150 µg FD70 applied apically (100 µg/mL), with PE:insulin MCs or solutions, 3 h, SEC-HPLC fluorescence, n = 3.

With desmopressin, in series [1], the oral bioavailability is recorded as 0.1–1.2%.

Take “70 kDa fluorescein isothiocyanate-dextran [FD70]”: in series [2], the “FD70 permeation profiles across porcine intestinal tissue” value is “no significant differences”.
